The values below are quoted from earlier work in paper PMC10518421, “Zebrafish as model system for the biological characterization of CK1 inhibitors” (Frontiers in Pharmacology, 2023).

The IC50 is the concentration needed to halve the response being measured.

The data set deals with CK1δ. The following applies: read-out: IC50 values CK1δ; prior to standardization, ref García-Reyes et al., 2018; cited from earlier work.

Take `COc1cccc(Cn2c(SCC(=O)Nc3nc4ccc(C(F)(F)F)cc4s3)nc3c(c2=O)SCC3)c1OC`: the IC50 is 760 nM.
